Results taken from PubChem BioAssay AID624256 (NMMLSC, 2012).
Only a part is listed here, and it is no random draw. Active and inactive are the calls of the source.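 Rule for the calls: active = normalized GFP-positive differentiation at or above the plate's own cutoff, the solvent-only control mean plus 3 SD; inconclusive = no clear call, values can overlap the other calls; inactive = the rest.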

Test: HoxA9-arrested leukemia cell differentiation promoters – flow cytometry, MLPCN library, primary screen (AID 624256);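 note: cells exposed to compound for four days before flow analysis; 0% = DMSO wells and 100% = fulvestrant positive control at 5 µM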
Details: ER-HoxA9 myeloid progenitors, lysozyme-GFP differentiation, at 10 µM, hits give high values

| Structure (SMILES) | normalized GFP-positive differentiation |
| --- | --- |
| Cc1cc(SC(NC(=O)c2ccccc2)C(Cl)(Cl)Cl)nc(C(C)C)n1 (configuration not stated) | active: 25.2% |
| O=[N+]([O-])c1cc([N+](=O)[O-])c(CCNc2ccccc2)c([N+](=O)[O-])c1 | active: 96.4% |
